System: patients with moderate and high risk NSTE-ACS
Experiment: ACUITY analysis: clinical outcomes at 30 days, consistent UFH/enoxaparin plus GP IIb/IIIa inhibitor vs switch to bivalirudin, and antithrombin-naïve patients
Assay type: in vivo, human
Conditions: for Major bleeding, number of patients / Major bleeding, rate / Transfusion, number of patients / Transfusion, rate / Major bleeding, RR / Transfusion, RR: 30 days
Source text: A total of 4215 patients received prior antithrombin therapy with either UFH or enoxaparin before randomization. Of these, 2137 were randomized to receive the same antithrombin plus a GP IIb/IIIa inhibitor (consistent), while 2078 patients were randomized to receive bivalirudin (switch). There were 2889 patients naïve to antithrombin therapy at randomization, and of these, 1462 patients were randomized to UFH/enoxaparin plus a GP IIb/IIIa inhibitor and 1427 to bivalirudin monotherapy (FIG. 1).
At 30 days, there was no difference in composite ischemia between the two groups: 6.9% for patients switched to bivalirudin vs. 7.4% for patients remaining on consistent UFH/enoxaparin ([RR 0.93; 0.75-1.16], p=0.52). […] Transfusions were also lower in the patients switched to bivalirudin vs. patients remaining on consistent UFH/enoxaparin (1.5% vs. 2.6% [RR 0.60; 0.39-0.92], p=0.02). (Table 2, FIG. 2).
Tables 3a and 3b show clinical outcomes according to type of heparin therapy (UFH or enoxaparin) in patients on prior antithrombin therapy and in patients naive to antithrombin therapy. In patients switched from either UFH or enoxaparin to bivalirudin, there were similar rates of composite ischemia and significant reductions in major bleeding; in patients naive to antithrombin therapy, there were similar rates of composite ischemia and significant reductions in major bleeding for those randomized to bivalirudin vs. either UFH or enoxaparin plus a GP IIb/IIIa inhibitor.

[1] = High Risk, naïve to antithrombin therapy
[2] = High Risk, naïve to antithrombin therapy, bivalirudin vs UFH/Enoxaparin
[3] = High Risk, prior antithrombin therapy, consistent vs switch
[4] = High Risk, prior antithrombin therapy, switch bivalirudin vs consistent UFH/Enoxaparin
[5] = PCI, naïve to antithrombin therapy
[6] = PCI, naïve to antithrombin therapy, bivalirudin vs UFH/Enoxaparin
[7] = PCI, prior antithrombin therapy, consistent vs switch
[8] = PCI, prior antithrombin therapy, switch bivalirudin vs consistent UFH/Enoxaparin
[9] = all patients, naïve to antithrombin therapy
[10] = all patients, naïve to antithrombin therapy, bivalirudin vs UFH/Enoxaparin
[11] = all patients, prior antithrombin therapy, consistent vs switch
[12] = all patients, prior antithrombin therapy, consistent vs switch, listed as bivalirudin
[13] = all patients, prior antithrombin therapy, switch bivalirudin vs consistent UFH/Enoxaparin
[14] = naïve to antithrombin therapy, bivalirudin vs UFH
[15] = naïve to antithrombin therapy, bivalirudin vs enoxaparin
[16] = prior UFH: consistent UFH vs switch from UFH to bivalirudin
[17] = prior UFH, switch bivalirudin vs consistent UFH
[18] = prior enoxaparin: consistent enoxaparin vs switch from enoxaparin to bivalirudin
[19] = prior enoxaparin, switch bivalirudin vs consistent enoxaparin

## CC[C@H](C)[C@H](NC(=O)[C@H](CCC(=O)O)NC(=O)[C@H](CCC(=O)O)NC(=O)[C@H](Cc1ccccc1)NC(=O)[C@H](CC(=O)O)NC(=O)CNC(=O)[C@H](CC(N)=O)NC(=O)CNC(=O)CNC(=O)CNC(=O)CNC(=O)[C@@H]1CCCN1C(=O)[C@H](CCCNC(=N)N)NC(=O)[C@@H]1CCCN1C(=O)[C@H](N)Cc1ccccc1)C(=O)N1CCC[C@H]1C(=O)N[C@@H](CCC(=O)O)C(=O)N[C@@H](CCC(=O)O)C(=O)N[C@@H](Cc1ccc(O)cc1)C(=O)N[C@@H](CC(C)C)C(=O)O [Bivalirudin, bivalirudin]
[1]
  Major bleeding, number of patients: 25
  Major bleeding, rate: (3.1%)
  Transfusion, number of patients: 8
  Transfusion, rate: (1.0%)
[2]
  Major bleeding, RR: 0.53
  Transfusion, RR: 0.37
[3]
  Major bleeding, number of patients: 53
  Major bleeding, rate: (3.5%)
  Transfusion, number of patients: 30
  Transfusion, rate: (2.0%)
[4]
  Major bleeding, RR: 0.54
  Transfusion, RR: 0.67
[5]
  Major bleeding, number of patients: 22
  Major bleeding, rate: (2.6%)
  Transfusion, number of patients: 8
  Transfusion, rate: (1.0%)
[6]
  Major bleeding, RR: 0.46
  Transfusion, RR: 0.37
[7]
  Major bleeding, number of patients: 45
  Major bleeding, rate: (3.5%)
  Transfusion, number of patients: 23
  Transfusion, rate: (1.8%)
[8]
  Major bleeding, RR: 0.52
  Transfusion, RR: 0.63
[9]
  Major bleeding, number of patients: 36
  Major bleeding, rate: (2.5%)
  Transfusion, number of patients: 15
  Transfusion, rate: (1.1%)
[10]
  Major bleeding, RR: 0.52
  Transfusion, RR: 0.44
[11]
  Major bleeding, number of patients: 59
  Major bleeding, rate: (2.8%)
  Transfusion, number of patients: 32
  Transfusion, rate: (1.5%)
[12]
  Major bleeding, rate: 2.8%
  Transfusion, rate: 1.5%
[13]
  Major bleeding, RR: 0.49
  Transfusion, RR: 0.60
[14]
  Major bleeding, RR: 0.54
  Transfusion, RR: 0.41
[15]
  Major bleeding, RR: 0.51
  Transfusion, RR: 0.47
[16]
  Major bleeding, number of patients: 37
  Major bleeding, rate: (2.8%)
  Transfusion, number of patients: 23
  Transfusion, rate: (1.8%)
[17]
  Major bleeding, RR: 0.44
  Transfusion, RR: 0.63
[18]
  Major bleeding, number of patients: 22
  Major bleeding, rate: (2.9%)
  Transfusion, number of patients: 9
  Transfusion, rate: (1.2%)
[19]
  Major bleeding, RR: 0.58
  Transfusion, RR: 0.52
Switching from UFH or enoxaparin to bivalirudin monotherapy vs remaining on UFH/enoxaparin
  reduction in major bleeding: ~50%

— patent publication US20090247465A1, “Novel Use of Bivalirudin in the Treatment of Acute Coronary Syndrome” (priority 2008, published 2009)
